# Properties, as collected for the OPERA models

From the experimental data distributed with OPERA 2.9.

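The OPERA project collected these measurements from public sources as training and test data for property models. One number stands for a compound and property, with no spread given. Method and conditions are not stated for these values. Where a salt, mixture or single isomer is drawn, the source does not say that exactly this form was tested. Unmarked limits or estimates from the upstream databases cannot be ruled out.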

Melting points are in °C. Boiling points are in °C, nominally at 760 mmHg. The octanol-water partition coefficient is given as log10; larger values mean a more lipophilic compound. Water solubility is log10 of mol/L, nominally at 25 °C; higher is more soluble. Vapor pressure is log10 of mmHg; the set covers 15 to 30 °C, mostly 20 to 25 °C. Henry's law constant (air-water partitioning) is log10 of atm·m3/mol, nominally at 25 °C. The unbound fraction in human plasma runs from 0 (all bound) to 1 (all free). Clint is human hepatic intrinsic clearance in µL/min per million cells; 0 means that no clearance was seen. Cells with "n/a" have no entry in this list.

{"smiles": "Cl.N/N=C(\\O)C(N)CO", "stereo": "stereo partly drawn", "mp (°C)": "198", "logP (octanol/water)": "0.001", "log vapor pressure (log10 mmHg)": "-4.546"}
{"smiles": "CC(=O)c1ccc(CC(C)C)cc1", "name": "Ethanone, 1-[4-(2-methylpropyl)phenyl]-", "mp (°C)": "-13", "logP (octanol/water)": "3.4", "log solubility (log10 mol/L)": "-3.371", "log vapor pressure (log10 mmHg)": "-2.13"}
{"smiles": "N#CCCN(CCC#N)c1ccc(N=Nc2c(Br)cc([N+](=O)[O-])cc2C(F)(F)F)cc1", "mp (°C)": "186.3", "logP (octanol/water)": "3.6", "log solubility (log10 mol/L)": "-7.85"}
{"smiles": "C=CCCCCCCO", "name": "Oct-7-en-1-ol", "logP (octanol/water)": "2.41", "log solubility (log10 mol/L)": "-1.744", "log vapor pressure (log10 mmHg)": "0.065"}
{"smiles": "Nc1nc(=O)[nH]cc1F", "name": "Flucytosine", "logP (octanol/water)": "-1.23", "log vapor pressure (log10 mmHg)": "-10.95"}
{"smiles": "Clc1ccc(Oc2cc(Cl)c(Cl)c(Cl)c2Cl)c(Cl)c1Cl", "name": "2,2',3,3',4,4',5-Heptachloro-diPh ether", "mp (°C)": "104", "log solubility (log10 mol/L)": "-9.12"}
{"smiles": "CCC[C@H]1CC[C@H](c2cc(C(C)(C)C)c(O)c(C(C)(C)C)c2)CC1", "mp (°C)": "91.2", "log solubility (log10 mol/L)": "-6.693"}
{"smiles": "CN1CCN(C(=O)[C@H](OCc2ccccc2)[C@@H](OCc2ccccc2)[C@H](OCc2ccccc2)[C@@]2(COCc3ccccc3)COC(C)(C)O2)CC1", "mp (°C)": "91", "log solubility (log10 mol/L)": "-6.327"}
{"smiles": "Cc1cc(O)cc2c1O[C@](C)(CCC[C@H](C)CCC[C@H](C)CCCC(C)C)CC2", "name": "D-delta-Tocopherol", "mp (°C)": "-2.5", "log vapor pressure (log10 mmHg)": "-7.923"}
{"smiles": "COc1ccccc1NC(=O)CC(C)=O", "name": "N-(2-Methoxyphenyl)-3-oxobutanamide", "logP (octanol/water)": "0.91", "log solubility (log10 mol/L)": "-1.806"}
{"smiles": "C=COCCCCCCCCCCCC", "name": "Dodecane, 1-(ethenyloxy)-", "mp (°C)": "-11", "bp (°C)": "236.8", "log vapor pressure (log10 mmHg)": "-2.593"}
{"smiles": "CCc1cccc2c(CCO)c[nH]c12", "name": "7-Ethyltryptophol", "logP (octanol/water)": "2.3", "log solubility (log10 mol/L)": "-1.915", "log vapor pressure (log10 mmHg)": "-5.512"}
{"smiles": "CSc1ccc(C(=O)c2[nH]c(=O)[nH]c2C)cc1", "name": "Enoximone", "log solubility (log10 mol/L)": "-3.561", "fraction unbound": "0.275"}
{"smiles": "C[N+](C)(C)[O-]", "name": "N,N-Dimethyl-methanamine-N-oxide", "bp (°C)": "158", "logP (octanol/water)": "-2.79", "log solubility (log10 mol/L)": "0.781", "log vapor pressure (log10 mmHg)": "-0.754"}
{"smiles": "Nc1ccccc1O", "name": "2-Aminophenol", "bp (°C)": "153", "log vapor pressure (log10 mmHg)": "-2.02"}
{"smiles": "CC1(C)O[C@@H]2[C@@H](CO[C@@]3(COS(N)(=O)=O)OC(C)(C)O[C@@H]23)O1", "name": "Topiramate", "log solubility (log10 mol/L)": "-1.539", "fraction unbound": "0.85"}
{"smiles": "FC(F)OC(Cl)C(F)(F)F", "stereo": "stereo unspecified", "name": "Isoflurane", "log solubility (log10 mol/L)": "-1.617", "log vapor pressure (log10 mmHg)": "2.449"}
{"smiles": "CO[Si](C)(CCl)OC", "name": "(Chloromethyl)dimethoxymethylsilane", "mp (°C)": "-63.9", "bp (°C)": "140.3", "log vapor pressure (log10 mmHg)": "0.776"}
{"smiles": "CCC(=O)c1ccc(O)cc1", "name": "Paroxypropione", "mp (°C)": "149", "log solubility (log10 mol/L)": "-2.639"}
{"smiles": "C/C=C/C/C=C/CCC(=O)[C@H]1O[C@H]1C(N)=O", "name": "Cerulenin", "logP (octanol/water)": "1.2", "log solubility (log10 mol/L)": "-2.145"}
{"smiles": "COC(=O)Oc1ccc(C)cc1OC", "name": "Carbonic acid, 2-methoxy-4-methylphenyl methyl ester", "mp (°C)": "52.23", "bp (°C)": "274.9", "logP (octanol/water)": "2.27", "log solubility (log10 mol/L)": "-2.718"}
{"smiles": "C#CCOC(=O)NCCCC", "name": "2-Propynyl butylcarbamate", "mp (°C)": "-1.05", "logP (octanol/water)": "1.9", "log solubility (log10 mol/L)": "-1.501", "log vapor pressure (log10 mmHg)": "-1.343"}
{"smiles": "CCCCOCCOCCOCc1cc2c(cc1CCC)OCO2", "name": "Piperonyl butoxide", "mp (°C)": "-2.5", "log vapor pressure (log10 mmHg)": "-6.912", "Henry's law constant (log10 atm·m3/mol)": "-10.64", "hepatic Clint (µL/min/10^6 cells)": "76.01"}
{"smiles": "CCCCCCOC(=O)C(C)C", "name": "Hexyl isobutyrate", "logP (octanol/water)": "4.7", "log solubility (log10 mol/L)": "-3.471", "log vapor pressure (log10 mmHg)": "0.565"}
{"smiles": "C=C[Si](C)(C)O[Si](C)(C)C=C", "name": "Divinyltetramethyldisiloxane", "logP (octanol/water)": "5.4", "log solubility (log10 mol/L)": "-5.954", "log vapor pressure (log10 mmHg)": "0.96"}
{"smiles": "CCCCCCCC(=O)OCC", "name": "Ethyl octanoate", "logP (octanol/water)": "4.47", "log vapor pressure (log10 mmHg)": "-0.147"}
{"smiles": "C=CCOCC(=C)C(=O)OC", "name": "Methyl 2-((allyloxy)methyl)acrylate", "mp (°C)": "-42.9", "bp (°C)": "175", "logP (octanol/water)": "1.95"}
{"smiles": "CC(=O)OCC1CCC(C)=CC1C", "stereo": "stereo unspecified", "name": "2,4-Dimethylcyclohex-3-ene-1-methyl acetate", "logP (octanol/water)": "4.2", "log solubility (log10 mol/L)": "-3.25", "log vapor pressure (log10 mmHg)": "-0.867"}
{"smiles": "FC(F)CCl", "name": "Ethane, 2-chloro-1,1-difluoro-", "logP (octanol/water)": "1.3", "log vapor pressure (log10 mmHg)": "2.647"}

The first 3 entries again:

SMILES	name	mp (°C)	bp (°C)	logP (octanol/water)	log solubility (log10 mol/L)	log vapor pressure (log10 mmHg)	Henry's law constant (log10 atm·m3/mol)	fraction unbound	hepatic Clint (µL/min/10^6 cells)
Cl.N/N=C(\O)C(N)CO (stereo partly drawn)	n/a	198	n/a	0.001	n/a	-4.546	n/a	n/a	n/a
CC(=O)c1ccc(CC(C)C)cc1	Ethanone, 1-[4-(2-methylpropyl)phenyl]-	-13	n/a	3.4	-3.371	-2.13	n/a	n/a	n/a
N#CCCN(CCC#N)c1ccc(N=Nc2c(Br)cc([N+](=O)[O-])cc2C(F)(F)F)cc1	n/a	186.3	n/a	3.6	-7.85	n/a	n/a	n/a	n/a